Reference: PMC6812009, “Covalent Aurora A regulation by the metabolic integrator coenzyme A” (Redox Biology, 2019)

Test system: FLAG-tagged Aurora A in HEK293/Pank1β cells
Assay: Aurora A Thr 288 phosphorylation and dimerization in cells treated with oxidising agents (immunoblot)
Type: cell-based, human
Conditions: 30 min treatment, samples separated in the presence of DTT

O=[As]c1ccccc1 (stereo not shown)
Aurora A phosphorylation at Thr 288 in cells: promoted an increase
